Among the data in PubChem BioAssay AID1778 (Sanford-Burnham Center for Chemical Genomics, 2009) are inhibition values, retold here.

By UniProt entry, the sequences of proteins in these tests, tags left out.
UniProt P41145, whole entry: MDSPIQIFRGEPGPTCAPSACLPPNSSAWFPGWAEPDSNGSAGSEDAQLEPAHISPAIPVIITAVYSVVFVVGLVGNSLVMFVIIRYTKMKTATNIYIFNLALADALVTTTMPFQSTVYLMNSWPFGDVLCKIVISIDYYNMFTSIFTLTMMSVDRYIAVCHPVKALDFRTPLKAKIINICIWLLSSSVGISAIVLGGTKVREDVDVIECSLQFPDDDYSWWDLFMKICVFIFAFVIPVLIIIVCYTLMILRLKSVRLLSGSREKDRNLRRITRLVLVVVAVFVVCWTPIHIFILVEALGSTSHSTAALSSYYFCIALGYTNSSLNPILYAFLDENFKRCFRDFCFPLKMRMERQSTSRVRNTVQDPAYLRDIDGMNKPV

The entries are a selection whose mix differs from that of the whole data set. Entries with a potency or affinity are not part of this list. Calls of active or inactive are those of the source. No stated cut-off is given here; in the data, active means inhibition above about 50%; inactive means the rest.

In this assay the target is Kappa-type opioid receptor (Homo sapiens) (UniProt P41145). Kind of assay: kappa opioid receptor blockers – cell-based, luminescence, uHTS (AID 1778). The note with it: KOR beta-arrestin recruitment, antagonist mode, at 10 µM, active compounds read high. In general terms: Activated receptors often draw arrestin, which recruitment assays turn into a signal.
As to `CCN(CC)CCn1c(NCc2ccc(OC)cc2)nc2ccccc21`, the inhibition was inactive: 18%.

Turning to `CCN(CC)CCCOC(=O)C(O)(c1ccccc1)c1ccccc1`, the inhibition was inactive: -18.2%.

In the case of `CP(=O)(Nc1ccccn1)Oc1ccc(Cl)cc1` (centres undefined), the inhibition was inactive: -25.6%.

Regarding `CCOP(C)(=S)SCC(=O)NC(C)C(=O)O` (centres undefined), the inhibition is inactive: -31.1%.

`CCOC(=O)c1ccc(NP(C)(=O)Oc2ccc(OC)cc2)cc1` (centres undefined): the inhibition is inactive: -24.6%.

As for `Cc1cc(C)cc(OP(C)(=O)Nc2ccc(SC(F)(F)F)cc2)c1` (centres undefined), the inhibition was inactive: 15.8%.

Consider `CP(=O)(NC(=O)Nc1ccccc1)Oc1ccccc1` (centres undefined), for which the inhibition is inactive: 3.2%.

Take `CCc1ccc(OP(C)(=O)N2CCN(c3ccc([N+](=O)[O-])cc3)CC2)cc1` (centres undefined): the inhibition is inactive: 23.3%.

Turning to `CP(=O)(Oc1ccccc1)OC(c1ccccc1)C(F)(F)F` (centres undefined), the inhibition was inactive: -3.4%.

In the case of `Cc1cccc(C)c1OP(C)(=O)Nc1ccc(SC(F)(F)F)cc1` (centres undefined), the inhibition is inactive: -4.4%.

Consider `CP(=O)(Nc1ccc(SC(F)(F)F)cc1)Oc1ccc(Cl)cc1` (centres undefined), for which the inhibition is inactive: 32.9%.

Consider `COc1ccccc1OP(C)(=O)Nc1ccccc1` (centres undefined), for which the inhibition is inactive: -2.3%.

Take `C=CCC1(Nc2ccccc2)CC(C)N(C)CC1C` (centres undefined): the inhibition is inactive: -6%.

As for `CP(=O)(Nc1ccccc1Br)Oc1ccccc1` (centres undefined), the inhibition was inactive: 1.3%.

As to `CP(=S)(Nn1cnnc1)Oc1ccccc1` (centres undefined), the inhibition was inactive: 13.5%.

As to `CCCCOc1ccc(C(=O)NCC2(N3CCCCC3)CCCCC2)cc1OC`, the inhibition is inactive: -22.7%.

Regarding `CP(=O)(OC12CC3CC(CC(C3)C1)C2)OC12CC3CC(CC(C3)C1)C2`, the inhibition was inactive: 16.2%.

As to `CCOC(=O)c1ccc(NP(C)(=O)Oc2ccc(Cl)cc2)cc1` (centres undefined), the inhibition was inactive: 9.4%.

With `CCCCN1CCC(C#N)(Nc2ccccc2)CC1`, the inhibition was inactive: 14.7%.

Regarding `CN(C)C(=O)c1c([N+](=O)[O-])cc([N+](=O)[O-])cc1[N+](=O)[O-]`, the inhibition was inactive: -13.7%.

As to `CP(=O)(Nc1ccc(Cl)cc1)Oc1ccc(F)cc1` (centres undefined), the inhibition is inactive: 5%.

As to `COc1ccccc1OP(C)(=O)Nc1ccccc1Br` (centres undefined), the inhibition is inactive: 10%.

Take `CC(C)(C)c1ccc(OP(C)(=O)O)cc1`: the inhibition was inactive: 4.9%.

Take `CCc1ccc(OP(C)(=O)Nc2cccnc2)cc1` (centres undefined): the inhibition is inactive: -23.6%.

With `CP(=O)(Oc1ccccc1)N1CCOC1=O` (centres undefined), the inhibition is inactive: 2.2%.

With `O=C(OCCCN1CCCC1)C(O)(c1ccccc1)C1CCCCC1` (centres undefined), the inhibition was inactive: -24.7%.

For the compound `COc1ccccc1OP(C)(=O)Nc1c(C)n(C)n(-c2ccccc2)c1=O` (centres undefined), the inhibition was inactive: 19.3%.

On to `COc1ccc(OP(C)(=O)Nc2ccc(Br)cc2)cc1` (centres undefined), for which the inhibition was inactive: 9.2%.

Regarding `CCN(CC)CC(O)COC(=O)C(O)(c1ccccc1)C1CCCCC1` (centres undefined), the inhibition is inactive: -8.8%.

As usually defined, the inhibition is the drop in the measured response relative to a control, in per cent.
